Legend:
[1] = biological target: human C5aR (Homo sapiens (Human), UniProt P21730); test: FLIPR assay: inhibition of C5a-mediated calcium mobilization; assay type: cell-based; details: stable cell line over expressing human C5aR & Gα15, human C5a at EC50 (0.1-0.25 nM)
Description: Compounds were tested for their ability to inhibit C5a-mediated calcium mobilization using a stable cell line over expressing the human C5aR & the Gα15 protein on the FLIPR (Fluorescent Imaging Plate Reader) Tetra system. Cells were maintained in culture media containing DMEM (Dulbecco's Modified Eagle Medium) with 4.5 g/L glucose, 10% fetal bovine serum, 100 U/mL, 1× non-essential amino acid, and 250 μg/mL G418 (Geneticin). Prior to testing of compounds, cells were plated at 10,000 cells/well in clear bottom 384-well black plate, and incubated overnight at 37° C. with 5% CO2. On the day of experiment, culture media was removed, and replaced with assay buffer HBSS (Hanks' Balanced Salt Solution) with 20 mM HEPES (4-(2-hydroxyethyl)-1-piperazineethanesulfonic acid) and 0.1% BSA (bovine serum albumin) BSA containing calcium 5 dye (Molecular Devices) and 2.5 mM probenecid. After 1 hour incubation at 37° C., 5% CO2 for 60 min, cells were pre-incubated with compounds for 30 minutes at room temperature, in 1% DMSO (dimethyl sulfoxide).

Chains of the proteins cited; added tags and fusions are not shown. Lines headed by an entry give the natural chain unless they say otherwise; changes in a name come on top.
UniProt P21730: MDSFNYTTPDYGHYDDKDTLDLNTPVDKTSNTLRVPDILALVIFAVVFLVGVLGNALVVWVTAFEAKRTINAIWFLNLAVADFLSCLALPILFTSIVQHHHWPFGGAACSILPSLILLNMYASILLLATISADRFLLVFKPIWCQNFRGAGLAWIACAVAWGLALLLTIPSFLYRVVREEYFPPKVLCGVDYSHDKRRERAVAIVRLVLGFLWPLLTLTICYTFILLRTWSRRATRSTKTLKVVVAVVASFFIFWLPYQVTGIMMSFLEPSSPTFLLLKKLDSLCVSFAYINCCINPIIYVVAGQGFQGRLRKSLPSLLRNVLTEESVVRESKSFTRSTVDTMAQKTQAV

[2] = system: CD11b; test: Human whole blood CD11b up-regulation assay; assay type: cell-based; details: 2 nM human C5a, CD15+ granulocytes, read-out: hCD11b IC50
Description: Whole blood was collected in sodium heparin tubes and the assay started within 2 hours of the blood draw. The blood was incubated with compounds in 1% DMSO (dimethyl sulfoxide) at room temperature for 10 minutes with gentle rocking. 2 nM of human C5a was then added for 15 minutes at room temperature with gentle rocking. Following the C5a incubation period cells were washed once with cold FACS (fluorescence-activated cell sorting) buffer (phosphate buffered saline+0.5% bovine serum albumin) FITC (fluorescein isothiocyanate) mouse anti-human CD15 and PE-Cy5 (phycoerythrin-cyanine 5) mouse anti-human CD11b antibodies (Becton Dickinson) were gently mixed with the cells and allowed to incubate for 30 minutes on ice protected from the light. Cells were then washed three times with cold FACS buffer. Red blood cells (RBC) were lysed by incubating with BD FACS lysis buffer (Becton Dickinson) for 10 minutes at room temperature. Cells were pelleted and the lysing procedure was repeated until all RBCs were lysed. The remaining leukocytes were resuspended in BD lysis buffer. Samples were acquired on the LSR^11 flow cytometer and 10,000 events of the CD15+ granulocyte population were collected. The CD11b median fluorescence intensity of the CD 15+ cell population was evaluated using FACSDiva software (Becton Dickinson).

Row | IC50 [1] | IC50 [2] | Compound
1 | 338 nM |  | Cc1cccc(C)c1-c1nc2c(c(N3CCCC(O)C3)n1)CN(c1cc(C(C)C)nn1C)CC2 (racemic) [Example 16-V, racemic 1-(2-(2,6-dimethylphenyl)-6-(3-isopropyl-1-methyl-1H-pyrazol-5-yl)-5,6,7,8-tetrahydropyrido[4,3-d]pyrimidin-4-yl)piperidin-3-ol]
2 | 1 nM |  | Cc1ccc2[nH]nc(C)c2c1-c1nc2c(c(N3CC[C@@H]4OC[C@]4(C)C3)n1)CN(c1c(Cl)c(C3CC3)nn1C)CC2 (racemic) [Example 69-L, (1S*,6S*)-3-(6-(4-chloro-3-cyclopropyl-1-methyl-1H-pyrazol-5-yl)-2-(3,5-dimethyl-1H-indazol-4-yl)-5,6,7,8-tetrahydropyrido[4,3-d]pyrimidin-4-yl)-1-methyl-7-oxa-3-azabicyclo[4.2.0]octane]
3 | 49 nM |  | Cc1ccc(C(C)C)cc1N1CCc2nc(-c3c(C)ccc4[nH]ncc34)cc(C)c2C1 [Example 41-D, 6-(5-Isopropyl-2-methylphenyl)-4-methyl-2-(5-methyl-1H-indazol-4-yl)-5,6,7,8-tetrahydro-1,6-naphthyridine]
4 |  | 4 nM | CCO[C@@H]1CCN(c2nc(-c3c(C)ccc4[nH]nc(C)c34)nc3c2CN(c2c(Cl)c(C4CC4)nn2C)CC3)CC1(C)C [Example 55-H, (R)-6-(4-chloro-3-cyclopropyl-1-methyl-1H-pyrazol-5-yl)-2-(3,5-dimethyl-1H-indazol-4-yl)-4-(4-ethoxy-3,3-dimethylpiperidin-1-yl)-5,6,7,8-tetrahydropyrido[4,3-d]pyrimidine]

Source: patent US8846656B2, “Tetrahydropyrido-pyridine and tetrahydropyrido-pyrimidine compounds and use thereof as C5a receptor modulators” (Novartis AG, priority 2011, dated 2014)
